Results on 67 substances are retold here after US9822157B2 (priority 2013, dated 2017).

Broadly, the EC50 is the concentration that produces a half-maximal response.

One assay addresses T1, human ferroportin (Homo sapiens, UniProt Q9NP59).
T1 sequence (Q9NP59 1-571): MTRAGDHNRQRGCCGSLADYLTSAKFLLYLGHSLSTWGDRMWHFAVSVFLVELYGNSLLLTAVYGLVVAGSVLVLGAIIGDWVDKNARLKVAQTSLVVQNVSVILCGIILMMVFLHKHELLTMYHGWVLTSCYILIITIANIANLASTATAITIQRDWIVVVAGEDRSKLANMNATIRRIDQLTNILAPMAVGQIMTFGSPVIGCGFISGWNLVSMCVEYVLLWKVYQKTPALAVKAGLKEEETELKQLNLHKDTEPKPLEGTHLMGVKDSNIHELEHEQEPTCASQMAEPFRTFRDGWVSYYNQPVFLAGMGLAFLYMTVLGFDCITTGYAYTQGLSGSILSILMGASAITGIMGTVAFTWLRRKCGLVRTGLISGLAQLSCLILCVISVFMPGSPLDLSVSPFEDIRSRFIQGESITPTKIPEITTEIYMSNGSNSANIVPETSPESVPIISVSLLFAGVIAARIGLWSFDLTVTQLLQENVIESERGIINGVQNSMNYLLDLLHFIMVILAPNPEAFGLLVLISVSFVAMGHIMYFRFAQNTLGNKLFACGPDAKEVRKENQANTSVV
Type of assay: cell-based. The note with it: Hepcidin analog peptides; read-out: Potency EC50. From the text:
The cDNA encoding the human ferroportin (SLC40A1) was cloned from a cDNA clone from Origene (NM_014585). The DNA encoding the ferroportin was amplified by PCR using primers also encoding terminal restriction sites for subcloning, but without the termination codon. The ferroportin receptor was subcloned into a mammalian GFP expression vector containing a neomycin (G418) resistance marker in such that the reading frame of the ferroportin was fused in frame with the GFP protein. The fidelity of the DNA encoding the protein was confirmed by DNA sequencing. HEK293 cells were used for transfection of the ferroportin-GFP receptor expression plasmid. The cells were grown according to standard protocol in growth medium and transfected with the plasmids using Lipofectamine (manufacturer's protocol, Invitrogen). […] The cells were propagated and frozen in aliquots.
Compound was added to desired final concentration for at least 18 hours in the incubator. […] Compound was added to desired final concentration for at least 18 hours but no more than 24 hours in the incubator.
A retro inverse peptide is a peptide with a reversed sequence in all D amino acids. […] The EC50 of these reference compounds for ferroportin degradation was determined according to the activity assay described above.
Turning to “Isovaleric acid-DTHFPCIKFEPRSK-K(isoglu-Palm)-CK-NH2 [Compound 222]”, the EC50 came out at 0.004 µM.

For the substance “Isovaleric acid-DTHFGCIIFGPRSKGWVCK-NH2 [Compound 122]”, the EC50 amounted to 0.057 µM.

Turning to “Hy-DTHFPIC1IFVC2GHRSIC2YRRC1R-NH2 [Compound 12]”, the concentration for a half-maximal effect (EC50) was determined as 0.077 µM.

In the case of “Octanoic acid-DTHFPCIIFGPRSRGWVCK-NH2 [Compound 88]”, the EC50 was more than 1 µM.

Consider “Isovaleric acid-DTHFPCIKFC-NH2 [Compound 193]”, for which the EC50 was found to be 0.08 µM.

As to “Isovaleric acid-DTHFKCIIFGPRSKGWVCK-NH2 [Compound 130]”, the EC50 is 0.15 µM.

Regarding “Isovaleric acid-DTHFPCIIFGPRSKGWECK-NH2 [Compound 172]”, the EC50 turned out to be 0.015 µM.

Consider “Isovaleric acid-DTHFPCIKF-K(lauric acid)-PRSKGWVC-NH2 [Compound 248]”, for which the EC50 is 0.01 µM.

Regarding “Hy-DTHFPIC1IFVC2HRSKGC2YRRC1R-NH2 [Compound 19]”, the EC50 was 0.14 µM.

With “Isovaleric acid-DTHFPCIKF-K(hexanoic acid)-PRSKGWVC-NH2 [Compound 251]”, the EC50 came to 0.021 µM.

Take “Isovaleric acid-DTHFPCIKF-K(octanoic acid)-PRSKGWVC-NH2 [Compound 250]”: the EC50 was determined as 0.03 µM.

Take “Isovaleric acid-DTHFPCIKFEPRSK-K(dapa-Palm)-CK-NH2 [Compound 229]”: the EC50 worked out at 0.013 µM.

Regarding “Isovaleric acid-DTHFKCIEFGPRSKGWVCK-NH2 [Compound 140]”, the 50% effective concentration (EC50) was more than 1 µM.

As for “Isovaleric acid-DTHFPCIKF-NH2 [Compound 291]”, the EC50 came to 0.007 µM.

Take “Isovaleric acid-DTHFPCIIFEPRSKGWVCKKKK-NH2 [Compound 144]”: the EC50 was found to be 0.015 µM.

As for “Isovaleric acid-DTHFPCIKF-K(Ac)-PRSKGWVC-NH2 [Compound 253]”, the 50% effective concentration (EC50) is 0.029 µM.

With “Isovaleric acid-DTHFPCIKF-K(isoglu-Palm)-PRSKGCK-NH2 [Compound 219]”, the EC50 was found to be 0.009 µM.

With “Isovaleric acid-DTHFPCIKFCK-NH2 [Compound 192]”, the concentration for a half-maximal effect (EC50) is 0.048 µM.

For the substance “Isovaleric acid-DTHFPCIKFGPKSKGWVCK-NH2 [Compound 112]”, the EC50 amounted to 0.015 µM.

Regarding “Isovaleric acid-DTHFPCIKFGCK-NH2 [Compound 191]”, the concentration for a half-maximal effect (EC50) stood at 0.097 µM.

With “Hexanoic acid-DTHFPCIKFGPRSKGWVCK-NH2 [Compound 166]”, the concentration for a half-maximal effect (EC50) came out at 0.036 µM.

In the case of “Isovaleric acid-DTHFPCIIFEPRSKGWVCK-NH2 [Compound 142]”, the 50% effective concentration (EC50) amounted to 0.009 µM.

Consider “Isovaleric acid-DTHFPCIKKEPHSKECK-NH2 [Compound 357]”, for which the 50% effective concentration (EC50) is more than 1 µM.

Regarding “Isovaleric acid-DTHFPC-[Dapa]-IFGPRSKGWDCK-NH2 [Compound 117]”, the EC50 is 0.065 µM.

For the substance “Valeric acid-DTHFPCIKFGPRSKGWVCK-NH2 [Compound 163]”, the concentration for a half-maximal effect (EC50) is 0.064 µM.

As to “Isovaleric acid-DTHFPCVIFGPRSKGWVCK-NH2 [Compound 94]”, the EC50 came out at 0.041 µM.

As to “Isovaleric acid-DTHFPICIFGPRS-K(PEG4)-GWVC-NH2 [Compound 177]”, the EC50 turned out to be 0.006 µM.

As for “[Ida]-TH-[Dpa]-[bhPro]-ICIFGPRSKGWVCM-NH2 [Compound 5]”, the concentration giving a half-maximal response (EC50) amounted to 0.017 µM.

Turning to “Isovaleric acid-DTHFPCIFFGPRSKGWVCK-NH2 [Compound 6]”, the EC50 stood at 0.023 µM.

For the substance “Octanoic acid-PEG11-DTHFPCIIFGPRSRGWVCK-NH2 [Compound 108]”, the 50% effective concentration (EC50) is more than 1 µM.

Take “Isovaleric acid-DTHFPCIKFEPRSKGCK-K(isoglu-Palm)-NH2 [Compound 224]”: the half-maximal effective concentration (EC50) turned out to be 0.004 µM.

For the substance “Isovaleric acid-DTHAPCIKFGPRSKGWVCK-NH2 [Compound 236]”, the EC50 was more than 0.5 µM.

Turning to “Isovaleric acid-DTHFPCIKFEPRS-K(isoglu-Palm)-GCK-NH2 [Compound 221]”, the EC50 came to 0.004 µM.

Regarding “Isovaleric acid-DTHFPCIKFGPRSKCK-NH2 [Compound 187]”, the EC50 amounted to 0.021 µM.

Consider “Isovaleric acid-HFPCIKFEPRSKGWVC-K(lauric acid)-NH2 [Compound 262]”, for which the half-maximal effective concentration (EC50) is 0.077 µM.

For the substance “[Ida]-THFPCIIFGPRSRGWVCK-NH2 [Compound 110]”, the EC50 is more than 0.3 µM.

As to “[Ida]-THFPCIKFEPRSKGWVC-K(lauric acid)-NH2 [Compound 255]”, the 50% effective concentration (EC50) came to 0.052 µM.

As for “4,4-5,5-6,6,6-Heptafluorohexanoic acid-DTHFPCIKFGPRSKGWVCK-NH2 [Compound 246]”, the EC50 amounted to 0.48 µM.

In the case of “Isovaleric acid-DTHFPCIIFGPRSKGCK-NH2 [Compound 115]”, the EC50 was found to be 0.021 µM.

As to “Isovaleric acid-DTHFPCIKFEPRSKGC-K(isoglu-Palm)-NH2 [Compound 223]”, the concentration for a half-maximal effect (EC50) was 0.005 µM.

In the case of “Hy-DTH-[Dpa]-PCIIFGPRSRGWVCK-NH2 [Compound 78]”, the EC50 was more than 1 µM.

Take “Isovaleric acid-DTHFPC1IIFVC2HRPKGC2YRRVC1R-NH2 [Compound 148]”: the 50% effective concentration (EC50) was 0.0022 µM.

For “[Ida]-THF-[bh-Pro]-CIIF-NH2 [Compound 285]”, the EC50 is more than 1 µM.

Turning to “Palm-PEG11-DTHFPCIIFGPRSRGWVCK-NH2 [Compound 89]”, the concentration giving a half-maximal response (EC50) was more than 1 µM.

Turning to “Isovaleric acid-DTHF-[Sarc]-CIIFGPRSKGWVCK-NH2 [Compound 126]”, the 50% effective concentration (EC50) stood at 0.031 µM.

For “Isovaleric acid-DTHFPCIKFEPRECK-NH2 [Compound 359]”, the concentration for a half-maximal effect (EC50) is 0.064 µM.

In the case of “Ida-THFPCIKFEPRSK-K(isoGlu-Palm)CK-NH2 [Compound 244]”, the half-maximal effective concentration (EC50) was found to be 0.025 µM.

For the substance “Isovaleric acid-DTHFPCIKFK(isoGlu-Palm)-PRSKGWECK-NH2 [Compound 241]”, the concentration for a half-maximal effect (EC50) came to 0.006 µM.

As for “Hy-DTHFPIC1IFVC2HRSKGC2YRAC1-NH2 [Compound 14]”, the EC50 came out at 0.069 µM.

With “Ac-DTHFPICIF-K(PEG8)-PRSKGWVCM-NH2 [Compound 76]”, the EC50 amounted to 0.61 µM.

Take “Isovaleric acid-DTHFPCIKFEPRSKGCK-K(dapa-Palm)-NH2 [Compound 231]”: the concentration for a half-maximal effect (EC50) was found to be 0.011 µM.

As for “Isovaleric acid-DTHFPCIKFGPCK-NH2 [Compound 190]”, the EC50 stood at 0.055 µM.

For “Isovaleric acid-DTHFPCIIFGPRSKGWVCKKKK-NH2 [Compound 143]”, the half-maximal effective concentration (EC50) stood at 0.024 µM.

In the case of “Isobutyric acid-DTHFPIC1IFVC2HRSKGC2YRRC1R-NH2 [Compound 17]”, the EC50 amounted to 0.093 µM.

With “Isovaleric acid-DTHFPCIKF-K(decanoic acid)-PRSKGWVC-NH2 [Compound 249]”, the EC50 was determined as 0.022 µM.

On to “pGlu-THFPIC1IFVC2HRSKGC2YRRC1R-NH2 [Compound 40]”, for which the EC50 amounted to 0.26 µM.

With “Isovaleric acid-DTHFPCIKFEPRSKKWVCK-NH2 [Compound 214]”, the EC50 is 0.015 µM.

For the substance “Isovaleric acid-DTHFPCIKFEPHSKGCK-NH2 [Compound 263]”, the concentration for a half-maximal effect (EC50) came to 0.062 µM.

On to “Isovaleric acid-DTHFPCIIFGPRSKGVC-NH2 [Compound 114]”, for which the EC50 is 0.018 µM.

Take “Isobutyric acid-DTHFPIC1IFVC2HRSKGC2YRRC1R-NH2 [Compound 13]”: the EC50 amounted to 0.063 µM.

For the substance “Isovaleric acid-DTHFPCIKFEPRSKGWVCK-NH2 [Compound 181]”, the EC50 worked out at 0.015 µM.

On to “Isovaleric acid-DTHFPCIKF-K(mysteric acid)-PRSKGWVC-NH2 [Compound 247]”, for which the EC50 turned out to be 0.007 µM.

Turning to “Isovaleric acid-DTHFPCIIFSPRSKGWVCK-NH2 [Compound 106]”, the EC50 came out at 0.044 µM.

For “Isovaleric acid-DTHFPCIKFGPRSKGWECK-NH2 [Compound 121]”, the EC50 came out at 0.014 µM.

Staying with this assay, now noted: in vitro activity (EC50) tested as in Example 2; read-out: In Vivo Activity EC50.
For the substance “Isovaleric acid-DTHFPCIIFGPRSKGCK-NH2 [Compound 115]”, the EC50 was found to be 0.021 µM.

For “Isovaleric acid-DTHFPCIKFEPRSKGWVCK-NH2 [Compound 181]”, the EC50 came to 0.015 µM.

The same assay, now with this note: read-out: EC50 (n = 3), cells printed in μM; in vitro activity as in Example 2; peptide monomers and dimers dimerized through a single disulphide linkage; n = 3.
In the case of Hy-DTHFPCIF-NH2 [Compound 293], the concentration for a half-maximal effect (EC50) is more than 1 µM.

Still in this assay, the particulars now being: read-out: EC50 (nM) (n = 3); in vitro activity as in Example 2; peptide monomers and dimers dimerized through a single disulphide linkage; n = 3.
“Isovaleric acid-DTHFPCIKF-NH2 [Compound 291]”: the EC50 turned out to be 0.007 µM.

The same assay, now with this note: read-out: EC50 (nM) (n > 3); peptide dimers, dimer position explored (DIG linker).
As for “(Isovaleric acid-DTHFPCIKF-NH2)2 DIG through K8 [Compound 342]”, the concentration for a half-maximal effect (EC50) came to 0.01 µM.

“(Isovaleric acid-DTKFPCIRF-NH2)2 [Compound 329]”: the half-maximal effective concentration (EC50) was determined as 0.009 µM.
